Measurements as given in US20260021092A1, “STRUCTURE-BASED DESIGN OF A NOVEL CLASS OF DRUGS FOR NEURODEGENERATIVE DISEASE” (The Regents of the University of California, priority 2022, published 2026).

Test system: AD brain-derived tau fibrils
Assay: Negative-stain EM and quantitative EM (qEM) of tau fibrils after compound incubation
Conditions: 33 micrographs per condition

SMILES: O=C(Nc1cccc(C(F)(F)F)c1)N1c2ccccc2Sc2ccccc21
- fibril number by quantitative EM (qEM): corresponding reduction in fibril density was not seen
